#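 Step 1: Grow cells in 96-well plates. Step 2: Expose to compound for 48 hours at 5 concentrations. Step 3: Interpolate endpoints linearly; if unreached, use highest concentration. Abbreviation: GI50, concentration required for 50% inhibition of growth. Definition used: TGI = concentration required for complete inhibition of growth.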
# How the values were obtained:
# Test in all cases: NCI tumour cell line growth inhibition, 48 h
# 786-0 renal = system: 786-0 renal
# A498 renal = system: A498 renal
# A549 NSCLC = system: A549 NSCLC
# ACHN renal = system: ACHN renal
# BT-549 breast = system: BT-549 breast
# CAKI-1 renal = system: CAKI-1 renal
# CCRF-CEM leukemia = system: CCRF-CEM leukemia
# COLO 205 colon = system: COLO 205 colon
# DU-145 prostate = system: DU-145 prostate
# EKVX NSCLC = system: EKVX NSCLC
# HCC-2998 colon = system: HCC-2998 colon
# HCT-116 colon = system: HCT-116 colon
# HCT-15 colon = system: HCT-15 colon
# HOP-62 NSCLC = system: HOP-62 NSCLC
# HOP-92 NSCLC = system: HOP-92 NSCLC
# HS 578T breast = system: HS 578T breast
# HT29 colon = system: HT29 colon
# IGROV1 ovarian = system: IGROV1 ovarian
# K-562 leukemia = system: K-562 leukemia
# KM12 colon = system: KM12 colon
# LOX IMVI melanoma = system: LOX IMVI melanoma
# M14 melanoma = system: M14 melanoma
# MCF7 breast = system: MCF7 breast
# MDA-MB-231 breast = system: MDA-MB-231 breast
# MDA-MB-435 = system: MDA-MB-435
# MDA-N = system: MDA-N
# MOLT-4 leukemia = system: MOLT-4 leukemia
# NCI-H226 lung = system: NCI-H226 lung
# NCI-H23 lung = system: NCI-H23 lung
# NCI-H522 lung = system: NCI-H522 lung
# NCI/ADR-RES ovarian = system: NCI/ADR-RES ovarian
# OVCAR-3 ovarian = system: OVCAR-3 ovarian
# OVCAR-4 ovarian = system: OVCAR-4 ovarian
# OVCAR-5 ovarian = system: OVCAR-5 ovarian
# OVCAR-8 ovarian = system: OVCAR-8 ovarian
# PC-3 prostate = system: PC-3 prostate
# RPMI-8226 leukemia = system: RPMI-8226 leukemia
# SF-268 CNS = system: SF-268 CNS
# SF-295 CNS = system: SF-295 CNS
# SF-539 CNS = system: SF-539 CNS
# SK-MEL-2 melanoma = system: SK-MEL-2 melanoma
# SK-MEL-28 melanoma = system: SK-MEL-28 melanoma
# SK-MEL-5 melanoma = system: SK-MEL-5 melanoma
# SK-OV-3 ovarian = system: SK-OV-3 ovarian
# SN12C renal = system: SN12C renal
# SNB-19 CNS = system: SNB-19 CNS
# SR leukemia = system: SR leukemia
# SW-620 colon = system: SW-620 colon
# T-47D breast = system: T-47D breast
# TK-10 renal = system: TK-10 renal
# U251 CNS = system: U251 CNS
# UACC-257 melanoma = system: UACC-257 melanoma
# UACC-62 melanoma = system: UACC-62 melanoma
# UO-31 renal = system: UO-31 renal
structure (smiles),measurement,setting,value
CC(C)(C)C12COC(c3ccc(N)cc3)(OC1)OC2,GI50,786-0 renal,> 50 µM
same,TGI,786-0 renal,> 50 µM
same,GI50,A498 renal,> 50 µM
same,TGI,A498 renal,> 50 µM
same,GI50,A549 NSCLC,> 50 µM
same,TGI,A549 NSCLC,> 50 µM
same,GI50,ACHN renal,> 50 µM
same,TGI,ACHN renal,> 50 µM
same,GI50,BT-549 breast,> 50 µM
same,TGI,BT-549 breast,> 50 µM
same,GI50,CAKI-1 renal,> 50 µM
same,TGI,CAKI-1 renal,> 50 µM
same,GI50,CCRF-CEM leukemia,> 50 µM
same,TGI,CCRF-CEM leukemia,> 50 µM
same,GI50,COLO 205 colon,> 50 µM
same,TGI,COLO 205 colon,> 50 µM
same,GI50,DU-145 prostate,> 50 µM
same,TGI,DU-145 prostate,> 50 µM
same,GI50,EKVX NSCLC,> 50 µM
same,TGI,EKVX NSCLC,> 50 µM
same,GI50,HCC-2998 colon,> 50 µM
same,TGI,HCC-2998 colon,> 50 µM
same,GI50,HCT-116 colon,> 50 µM
same,TGI,HCT-116 colon,> 50 µM
same,GI50,HCT-15 colon,> 50 µM
same,TGI,HCT-15 colon,> 50 µM
same,GI50,HOP-62 NSCLC,> 50 µM
same,TGI,HOP-62 NSCLC,> 50 µM
same,GI50,HOP-92 NSCLC,8.53 µM
same,TGI,HOP-92 NSCLC,> 50 µM
same,GI50,HS 578T breast,8.32 µM
same,TGI,HS 578T breast,19.5 µM
same,GI50,HT29 colon,> 50 µM
same,TGI,HT29 colon,> 50 µM
same,GI50,IGROV1 ovarian,> 50 µM
same,TGI,IGROV1 ovarian,> 50 µM
same,GI50,K-562 leukemia,> 50 µM
same,TGI,K-562 leukemia,> 50 µM
same,GI50,KM12 colon,> 50 µM
same,TGI,KM12 colon,> 50 µM
same,GI50,LOX IMVI melanoma,> 50 µM
same,TGI,LOX IMVI melanoma,> 50 µM
same,GI50,M14 melanoma,> 50 µM
same,TGI,M14 melanoma,> 50 µM
same,GI50,MCF7 breast,> 50 µM
same,TGI,MCF7 breast,> 50 µM
same,GI50,MDA-MB-231 breast,> 50 µM
same,TGI,MDA-MB-231 breast,> 50 µM
same,GI50,MDA-MB-435,> 50 µM
same,TGI,MDA-MB-435,> 50 µM
same,GI50,MDA-N,> 50 µM
same,TGI,MDA-N,> 50 µM
same,GI50,MOLT-4 leukemia,> 50 µM
same,TGI,MOLT-4 leukemia,> 50 µM
same,GI50,NCI-H226 lung,> 50 µM
same,TGI,NCI-H226 lung,> 50 µM
same,GI50,NCI-H23 lung,> 50 µM
same,TGI,NCI-H23 lung,> 50 µM
same,GI50,NCI-H522 lung,7.22 µM
same,TGI,NCI-H522 lung,14.5 µM
same,GI50,NCI/ADR-RES ovarian,> 50 µM
same,TGI,NCI/ADR-RES ovarian,> 50 µM
same,GI50,OVCAR-3 ovarian,> 50 µM
same,TGI,OVCAR-3 ovarian,> 50 µM
same,GI50,OVCAR-4 ovarian,> 50 µM
same,TGI,OVCAR-4 ovarian,> 50 µM
same,GI50,OVCAR-5 ovarian,> 50 µM
same,TGI,OVCAR-5 ovarian,> 50 µM
same,GI50,OVCAR-8 ovarian,> 50 µM
same,TGI,OVCAR-8 ovarian,> 50 µM
same,GI50,PC-3 prostate,> 50 µM
same,TGI,PC-3 prostate,> 50 µM
same,GI50,RPMI-8226 leukemia,> 50 µM
same,TGI,RPMI-8226 leukemia,> 50 µM
same,GI50,SF-268 CNS,7.01 µM
same,TGI,SF-268 CNS,13.9 µM
same,GI50,SF-295 CNS,> 50 µM
same,TGI,SF-295 CNS,> 50 µM
same,GI50,SF-539 CNS,> 50 µM
same,TGI,SF-539 CNS,> 50 µM
same,GI50,SK-MEL-2 melanoma,> 50 µM
same,TGI,SK-MEL-2 melanoma,> 50 µM
same,GI50,SK-MEL-28 melanoma,> 50 µM
same,TGI,SK-MEL-28 melanoma,> 50 µM
same,GI50,SK-MEL-5 melanoma,> 50 µM
same,TGI,SK-MEL-5 melanoma,> 50 µM
same,GI50,SK-OV-3 ovarian,> 50 µM
same,TGI,SK-OV-3 ovarian,> 50 µM
same,GI50,SN12C renal,> 50 µM
same,TGI,SN12C renal,> 50 µM
same,GI50,SNB-19 CNS,> 50 µM
same,TGI,SNB-19 CNS,> 50 µM
same,GI50,SR leukemia,> 50 µM
same,TGI,SR leukemia,> 50 µM
same,GI50,SW-620 colon,> 50 µM
same,TGI,SW-620 colon,> 50 µM
same,GI50,T-47D breast,> 50 µM
same,TGI,T-47D breast,> 50 µM
same,GI50,TK-10 renal,> 50 µM
same,TGI,TK-10 renal,> 50 µM
same,GI50,U251 CNS,> 50 µM
same,TGI,U251 CNS,> 50 µM
same,GI50,UACC-257 melanoma,> 50 µM
same,TGI,UACC-257 melanoma,> 50 µM
same,GI50,UACC-62 melanoma,> 50 µM
same,TGI,UACC-62 melanoma,> 50 µM
same,GI50,UO-31 renal,> 50 µM
same,TGI,UO-31 renal,> 50 µM
